Reference: ChEMBL document CHEMBL1129215, “(Dipropylamino)-tetrahydronaphthofurans: centrally acting serotonin agonists and dopamine agonists-antagonists” (Bioorg Med Chem Lett, 1997)

Sequences of proteins named here, by UniProt entry; tags and fusion partners are left off.
UniProt P35462, whole entry: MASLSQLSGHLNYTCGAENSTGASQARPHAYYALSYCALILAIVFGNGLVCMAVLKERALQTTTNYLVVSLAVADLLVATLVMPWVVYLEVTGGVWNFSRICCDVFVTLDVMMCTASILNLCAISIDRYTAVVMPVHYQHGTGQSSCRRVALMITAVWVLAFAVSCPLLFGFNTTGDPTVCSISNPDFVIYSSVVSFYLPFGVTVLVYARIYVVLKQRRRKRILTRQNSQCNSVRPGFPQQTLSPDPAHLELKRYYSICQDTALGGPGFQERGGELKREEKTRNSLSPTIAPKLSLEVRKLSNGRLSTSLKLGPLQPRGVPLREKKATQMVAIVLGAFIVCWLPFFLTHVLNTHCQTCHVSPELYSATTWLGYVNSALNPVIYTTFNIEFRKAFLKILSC

Molecular target: D(3) dopamine receptor (Homo sapiens, UniProt P35462)
Assay: biochemical

CCCN(CCC)C1CCc2c(O)cccc2C1 (stereo unspecified) [5-OH-DPAT]
Ki: 4.4 nM
